In the library only some 1% were active in any assay of this set; here they are far more common.
Statin myotox sup: suppressors of simvastatin-induced myotoxicity in C2C12 myotubes | ATP luminescence, 48 h; scaled: DMSO 0, geranylgeraniol control 100 | rescue of ATP level, % at 7.49 µM | 0.78% of 330,000 active | AID 602340;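 active = mean ATP rescue above about 67%, or every replicate alone reaching that limit, limit read from the data, passing the limit was not always enough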;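 note: myotubes were challenged with 10 µM simvastatin during compound exposure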
UUG fidelity: alters start codon recognition fidelity in yeast. S. cerevisiae UUG-firefly luciferase reporter, luminescence/redox ratio. activity score, % at 18.7 µM. 0.13% of 350,000 active. AID 602363;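 active = replicate mean at a twofold rise or more, about +100% in these data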;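 also: firefly luciferase made from a UUG start codon reports start codon fidelity; reporter light over untreated wells divided by growth signal over untreated wells; some hits fall short of that in this replicate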
Rtt109 Vps75: inhibitors of Candida albicans Rtt109/Vps75 histone acetyltransferase; 0.16% of 330,000 active; inhibition, % at 34.9 µM; Q5AAJ8; purified Rtt109/Vps75, ThioGlo CoA-SH fluorescence, 4 h;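 active = inhibition of at least 50% in every replicate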
Cneo AK release: causes C. neoformans cell lysis | adenylate kinase release luminescence, 4 h; normalised: neutral wells 0, clomiphene wells 100 | lysis activity, % at 15 µM | 0.2% of 360,000 active;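 active = mean lysis activity across replicates of at least 80%, whatever share of replicates individually reach that level; inactive = mean lysis activity below 80%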
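Test system: log-phase Cryptococcus neoformans yeast cells. Input: 5 × 10^6 yeast cells/mL. Medium: fresh YPD growth medium. Doses: single dose. Incubation: static 4 h at 37 °C with compound, 1 h detection. Measured by: luminescent adenylate kinase detection reagent. Read-out: signal increase indicating cell lysis. Benchmarks: Clomiphene.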
CDK5 p35 inh: CDK5/p35 (human) kinase inhibition | Q00535+Q15078 | Recombinant CDK5/p35, ADP-Glo luminescence, 60 min | inhibition, % at 10 µM | 0.01% of 330,000 active | AID 488839;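 active = highest replicate inhibition of at least 50% and at least 75% of replicates reaching 50%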;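 note: plate controls were DMSO neutral control for no effect and GW8510 at 10 µM for full effect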
Numbers without * were called inactive; . = no result.

no. | mol | Statin myotox sup | UUG fidelity | Rtt109 Vps75 | Cneo AK release | CDK5 p35 inh
1 | Cc1nn(C)c(C)c1S(=O)(=O)NCc1cccs1 | 82* | -14 | 5 | 0 | -3
2 | CCOC(=O)c1c(S(=O)(=O)NCc2cccs2)c(C)n(C)c1C | 2 | -4 | -1 | 7 | -1
3 | C[C@@H]1CCCCO[C@@H](CN(C)Cc2ccc(C(F)(F)F)cc2)[C@H](C)CN([C@@H](C)CO)C(=O)c2cc(NS(=O)(=O)c3cccs3)ccc2O1 | 72* | -4 | . | 0 | .
4 | C[C@@H]1CCCCO[C@H](CN(C)Cc2ccccc2)[C@@H](C)CN([C@H](C)CO)C(=O)c2cc(NS(=O)(=O)c3cccs3)ccc2O1 | . | 9 | . | -2 | .
5 | C[C@@H]1CCCCO[C@H](CN(C)Cc2ccc(C(F)(F)F)cc2)[C@H](C)CN([C@H](C)CO)C(=O)c2cc(NS(=O)(=O)c3cccs3)ccc2O1 | -60 | 9 | . | 0 | .
6 | C[C@@H]1CCCCO[C@H](CN(C)Cc2ccccc2)[C@H](C)CN([C@@H](C)CO)C(=O)c2cc(NS(=O)(=O)c3cccs3)ccc2O1 | . | 34 | . | 86* | .
7 | C[C@@H]1CN([C@@H](C)CO)C(=O)c2cc(NS(=O)(=O)c3cn(C)cn3)ccc2O[C@@H](C)CCCCO[C@@H]1CN(C)Cc1ccc(C(F)(F)F)cc1 | . | 17 | . | 96* | .
8 | Cc1ccc(S(=O)(=O)Nc2ccc3c(c2)C(=O)N([C@H](C)CO)C[C@@H](C)[C@H](CN(C)Cc2ccc(C(F)(F)F)cc2)OCCCC[C@@H](C)O3)cc1 | . | 13 | . | 118* | .
9 | COc1ccc(CN(C)C[C@H]2OCCCC[C@H](C)Oc3ccc(NS(C)(=O)=O)cc3C(=O)N([C@H](C)CO)C[C@H]2C)cc1 | -4 | . | . | . | .
10 | Cc1nc2ccccn2c1-c1csc(NCc2ccco2)n1 | 94* | -16 | 2 | 0 | 2
11 | Cc1nc(C)c(-c2csc(NCc3ccco3)n2)s1 | -16 | -10 | -4 | -3 | 2
12 | CN1c2ccc(-c3ccc(C#N)cc3)cc2[C@@H]2[C@@H](CCN2C(=O)c2cccc(F)c2)[C@H]1CO | 3 | -9 | . | -6 | .
13 | O=C(CNS(=O)(=O)c1ccc(Br)s1)N1CCN(c2ncccn2)CC1 | 150* | -3 | 0 | -5 | 1
14 | CNC[C@H]1Oc2ccc(NS(=O)(=O)c3ccc(Cl)cc3)cc2CC(=O)N([C@@H](C)CO)C[C@@H]1C | -3 | 8 | . | -2 | .
15 | CO[C@H]1CN(C)C(=O)c2ccc(NC(C)=O)cc2OC[C@@H](C)N(Cc2nccs2)C[C@@H]1C | -5 | -22 | . | 2 | .
16 | C[C@H]1CN([C@@H](C)CO)C(=O)c2cccc(NC(=O)C3CCCCC3)c2O[C@H]1CN(C)Cc1ccncc1 | -8 | -16 | . | -4 | .
17 | CC(C)c1[nH]nc2c1C(C(C)C)C(C#N)=C(N)O2 (configuration not stated) | 72* | -17 | -4 | 0 | 0
18 | Cc1ccccc1S(=O)(=O)N1C[C@H](O)COC[C@@H]2O[C@H](CC(=O)NCCc3ccccc3)CC[C@H]21 | 8 | . | . | 0 | .
19 | CCCNC(=O)C[C@H]1C[C@@H]2c3cc(NC(=O)Nc4ccc(OC)cc4)ccc3O[C@@H]2[C@H](CO)O1 | 11 | -10 | . | -62 | .
20 | CCCNC(=O)C[C@@H]1C[C@H]2c3cc(NC(=O)CC4CC4)ccc3O[C@H]2[C@H](CO)O1 | -4 | 139* | . | 18 | .
21 | COc1cccc(S(=O)(=O)Nc2ccc3c(c2)[C@H]2C[C@@H](CC(=O)O)O[C@H](CO)[C@H]2O3)c1 | 1 | 37* | . | -39 | .
22 | COc1cccc(S(=O)(=O)Nc2ccc3c(c2)[C@@H]2C[C@H](CC(=O)O)O[C@@H](CO)[C@@H]2O3)c1 | 2 | -7 | . | -57 | .
23 | CCCNC(=O)C[C@H]1C[C@H]2c3cc(NC(=O)Nc4ccc(OC)cc4)ccc3O[C@H]2[C@@H](CO)O1 | 1 | -3 | . | 90* | .
24 | COCCNC(=O)C[C@@H]1C[C@H]2c3cc(NC(=O)C4CCOCC4)ccc3O[C@H]2[C@H](CO)O1 | 4 | -1 | . | 109* | .
25 | CCCNC(=O)Nc1ccc2c(c1)C(=O)N(C)[C@H]1CC[C@H](CC(=O)NC)O[C@@H]1CO2 | 13 | -4 | . | -3 | .
26 | O=C(C[C@@H]1C[C@@H]2c3cc(NC(=O)Nc4ccc(F)cc4)ccc3O[C@@H]2[C@H](CO)O1)NCC1CC1 | 5 | -7 | . | 2 | .
27 | O=C(C[C@@H]1C[C@@H]2c3cc(NC(=O)Nc4ccc(F)cc4)ccc3O[C@@H]2[C@@H](CO)O1)NCC1CC1 | -2 | 17 | . | 87* | .

Record cards, from the list above. Order of screens: Statin myotox sup	UUG fidelity	Rtt109 Vps75	Cneo AK release	CDK5 p35 inh
Cc1nc(C)c(-c2csc(NCc3ccco3)n2)s1 is listed with -16	-10	-4	-3	2
CCCNC(=O)Nc1ccc2c(c1)C(=O)N(C)[C@H]1CC[C@H](CC(=O)NC)O[C@@H]1CO2 is listed with 13	-4	.	-3	.
C[C@@H]1CN([C@@H](C)CO)C(=O)c2cc(NS(=O)(=O)c3cn(C)cn3)ccc2O[C@@H](C)CCCCO[C@@H]1CN(C)Cc1ccc(C(F)(F)F)cc1 is listed with .	17	.	96*	.

From PubChem
